We go through four molecules from US20180162938A1 (GANYMED PHARMACEUTICALS, published 2018).

The target in assay [1] is T1, human CLDN6 (claudin 6), full length (human, UniProt P56747 1-220).
T1 construct: Expressed untagged from vector p3953 in HEK293T, HEK293 and CHO-K1 cells; endogenous in NEC8 and OV90 cells; In the Western blots it stood in denatured cell lysate; also called wild-type CLDN6
T1 sequence: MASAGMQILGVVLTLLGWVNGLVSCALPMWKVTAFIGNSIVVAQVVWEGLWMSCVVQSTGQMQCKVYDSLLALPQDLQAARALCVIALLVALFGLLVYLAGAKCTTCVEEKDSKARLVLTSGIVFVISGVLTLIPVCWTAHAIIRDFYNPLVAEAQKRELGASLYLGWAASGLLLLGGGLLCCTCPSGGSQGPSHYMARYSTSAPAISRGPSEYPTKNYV
The assay can be described thus: flow cytometry saturation binding (median fluorescence), HEK293 cells stably expressing human CLDN6.

The target in assay [2] is T1, human CLDN6 (claudin 6), full length. The assay can be described thus: flow cytometry (median fluorescence), OV90 ovarian cancer cells endogenously expressing CLDN6.
Assay [3] shares this target. The assay can be described thus: flow cytometry (median fluorescence), NEC8 testicular cancer cells endogenously expressing CLDN6.
Assay [4] shares this target. The experiment in a line: flow cytometry, NEC8 cells endogenously expressing CLDN6.
For assay [5] the target is unchanged. The assay can be described thus: flow cytometry saturation binding, HEK293 cells stably expressing human CLDN6.
Assay [6] has the same target. The experiment in a line: flow cytometry, OV90 cells endogenously expressing CLDN6.

B1: chimeric monoclonal antibody chimAB 64A (antibody, V domains shown)
VH: EVQLQQSGPELVKPGASMKISCKASGYSFTGYTMNWVKQSHGKNLEWIGLINPYNGGTIYNQKFKGKATLTVDKSSSTAYMELLSLTSEDSAVYYCARDYGFVLDYWGQGTTLTVSS
VL: QIVLTQSPSIMSVSPGEKVTITCSASSSVSYMHWFQQKPGTSPKLCIYSTSNLASGVPARFSGRGSGTSYSLTISRVAAEDAATYYCQQRSNYPPWTFGGGTKLEIKR
For B1, the half-maximal effective concentration (EC50 (read off the curve)) in assay [1] is approximately 0.5 µg/mL; in assay [2], approximately 0.6 µg/mL; in assay [3], approximately 0.6 µg/mL.

B2: chimeric monoclonal antibody chimAB 61D (antibody, V domains shown)
VH: EVQLQQSGPELVKPGASMKISCKASGYSFTGYTMNWVKQSHGKNLEWIGLINPYNGGTSYNQKFKGKATLTIDKSSSTAYMELLSLTSEDSAVYYCARDYGYVLDYWGQGTTLTVSS
VL: QIVLTQSPAIMSASPGEKVTITCSASSSVSYLHWFQQKPGTSPKLWVYSTSNLPSGVPARFGGSGSGTSYSLTISRMEAEDAATYYCQQRSIYPPWTFGGGTKLEIKR
Consider B2, for which the EC50 in assay [4] came to 1.7 µg/mL; in assay [5], 2.3 µg/mL; in assay [6] it was 1.5 µg/mL.

B3: chimeric monoclonal antibody chimAB 89A (antibody, V domains shown)
VH: EVQLQQSRPELVKPGASMKISCKASGYSFTGYTLNWVKQSHGKNLEWIGLINPYNGGSSYNQKFKDKATLTVDKSSSTAYMELLSLTSEDSAVYYCARDYGYVFDYWGQGTTLTVSS
VL: QIVLTQSPAIMSASPGEKVTITCSASSSVNYMHWFQLKPGTSPKLLIYSTSNLASGVPARFSGRGSGTSYSLTISRMEAEDAATYYCQQRNNYPPWTFGGGTKLEIKR
As for B3, the concentration giving a half-maximal response (EC50 (read off the curve)) in assay [1] was approximately 0.5 µg/mL; in assay [2], approximately 0.6 µg/mL; in assay [3], approximately 0.6 µg/mL.

B4: chimeric monoclonal antibody chimAB 67A (antibody, V domains shown)
VH: EVQLQQSGPELVKPGASMKISCKASGYSFTGYTMNWVKQSHGKNLEWIGLINPYNGGIIYNQKFKGKATLTVDKSSSTAYMELLSLTSEDSAVFYCARDFGYVLDYWGQGTTLTVSS
VL: QIVLTQSPAIMSASPGEKVTITCSASSSVSYMHWFQQKPGTSPKLWIYSTSNLASGVPARFSGSGSGTSYSLTISRVAAEDAATYYCQQRSTYPPWTFGGGTKLEIKR
As to B4, the 50% effective concentration (EC50) in assay [4] was determined as 6.1 µg/mL; in assay [5], 1 µg/mL; in assay [6] it was 2.3 µg/mL.
